The values below are quoted from earlier work in PMC8583776, “PD-L1 Inhibitors: Different Classes, Activities, and Mechanisms of Action” (International Journal of Molecular Sciences, 2021).

The subject of this data set is mPD-L1. Also noted: method as in PMID 33437940; key: √: particular activity confirmed experimentally; No: the compound was confirmed not to possess a particular activity; n.d.: no data on a particular activity. Particulars: mouse PD-L1; cited from earlier work.

For “hPD-1: human PD-1 protein, natural ligand of PD-L1”, the “Target Specificity mPD-L1” value is recorded as “√”.
